Yeast mating assay 1: variants of the scFv Ab-14

Values reported by Engelhart et al. 2022, doi:10.1038/s41597-022-01779-4 (FLAb copy).

Target: peptide PDVDLGDISGINAS, taken from heptad repeat 2 (HR2) of SARS-CoV-2 spike.

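Library AAYL50 holds single substitutions and randomly drawn double and triple substitutions in the CDRs. In AlphaSeq, yeast of one mating type display the scFv and yeast of the other type display the target. The frequency of each diploid, read from paired DNA barcodes, reflects how well the two displayed proteins bind. Each replicate has its own calibration line, from reference interactions of the BCL2 family. Mating was done three times.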

Each scFv is VH, the linker GGGGSGGGGSGGGGS, VL, as in the parent Ab-14, and differs from it in the CDRs of the light chain only.
VH: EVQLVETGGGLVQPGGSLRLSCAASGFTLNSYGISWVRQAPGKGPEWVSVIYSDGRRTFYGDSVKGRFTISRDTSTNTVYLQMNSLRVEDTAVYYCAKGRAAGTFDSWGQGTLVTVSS
VL: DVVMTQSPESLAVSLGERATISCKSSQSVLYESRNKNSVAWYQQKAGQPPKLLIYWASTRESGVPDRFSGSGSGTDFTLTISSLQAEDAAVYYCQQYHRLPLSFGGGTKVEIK

Changes read parent residue, position, new residue, counted from the first residue of the VL shown. Every variant below is changed at L100 of the VL (sequential numbering). Kd is apparent (estimated from mating counts) and averaged on the log scale over replicates with a signal. Smaller is tighter. Where no diploid with the target was found in any replicate, the entry reads "no signal": below detection, most likely a poor binder, though not proof of it. Entries are sorted by rising average, undetected variants last.

Variant L100A+S103D showed 5.7 nM (3 of 3 replicates; controls 3 of 9). Variant L30C+L100T showed 7.0 nM (3 of 3 replicates; controls 0 of 9). With S28W+W56M+L100F the result was 8.2 nM (3 of 3 replicates; controls 0 of 9). With R99V+L100Q+P101I the result was 12 nM (3 of 3 replicates; controls 2 of 9). With S26H+E61V+L100M the result was 15 nM (3 of 3 replicates; controls 4 of 9). Variant S33G+S58G+L100Y gave 19 nM (3 of 3 replicates; controls 2 of 9).

With L100F+S103W the result was 23 nM (3 of 3 replicates; controls 4 of 9). Variant H98N+R99H+L100I showed 26 nM (3 of 3 replicates; controls 0 of 9). Variant L100Q gave 32 nM (3 of 3 replicates; controls 1 of 9). Variant A57M+S58N+L100S showed 37 nM (3 of 3 replicates; controls 5 of 9). Variant E32Q+L100V+P101V gave 39 nM (3 of 3 replicates; controls 3 of 9). With S33Q+L100A the result was 51 nM (1 of 3 replicates; controls 0 of 9).

With L100I the result was 60 nM (3 of 3 replicates; controls 3 of 9). Variant E61L+H98N+L100T gave 75 nM (3 of 3 replicates; controls 0 of 9). Variant S25K+E32C+L100I gave 110 nM (3 of 3 replicates; controls 1 of 9). For L30R+S33H+L100T, the assay gave 200 nM (3 of 3 replicates; controls 1 of 9). For S26R+Q95D+L100Q, the assay gave 290 nM (3 of 3 replicates; controls 1 of 9). Variant N35R+N37G+L100K showed 340 nM (3 of 3 replicates; controls 1 of 9).

Variant E32D+Q96N+L100M gave 380 nM (2 of 3 replicates; controls 1 of 9). Variant L100Y showed 440 nM (3 of 3 replicates; controls 0 of 9). Variant S25Q+V39L+L100A showed 1.1 µM (1 of 3 replicates; controls 1 of 9). For S25Q+L100T, the assay gave 2.0 µM (1 of 3 replicates; controls 0 of 9). Variant E32F+H98A+L100C showed 2.5 µM (1 of 3 replicates; controls 0 of 9). Variant R60T+L100N gave 4.2 µM (3 of 3 replicates; controls 2 of 9).

For R99D+L100M+S103P, the assay gave 4.7 µM (1 of 3 replicates; controls 1 of 9). Variant N35T+A57W+L100A showed 5.9 µM (2 of 3 replicates; controls 2 of 9). Variant L100R+S103D gave 7.6 µM (3 of 3 replicates; controls 5 of 9). Variant S28M+L30R+L100K gave 11 µM (2 of 3 replicates; controls 3 of 9). With S26C+S58L+L100F the result was 16 µM (1 of 3 replicates; controls 3 of 9). Variant S25C+L100W+S103G gave 16 µM (3 of 3 replicates; controls 3 of 9).

With K24G+L100I+L102S the result was 20 µM (1 of 3 replicates; controls 0 of 9). Variant N35C+R60M+L100W gave 26 µM (1 of 3 replicates; controls 2 of 9). For S26M+S38M+L100R, the assay gave 41 µM (2 of 3 replicates; controls 6 of 9). Variant H98R+R99Y+L100V showed 52 µM (1 of 3 replicates; controls 1 of 9). For L30P+N37H+L100G, the assay gave 120 µM (1 of 3 replicates; controls 0 of 9). Variant S38W+L100T+L102I showed 320 µM (2 of 3 replicates; controls 4 of 9).

With S26R+E61N+L100S the result was 730 µM (1 of 3 replicates; controls 4 of 9). For S25A+L100Q+P101N, the assay gave no signal (0 of 3 replicates; controls 2 of 9). With T59W+Q96L+L100M the result was no signal (0 of 3 replicates; controls 2 of 9). With A57L+L100P+L102G the result was no signal (0 of 3 replicates; controls 0 of 9). Variant E32C+S58E+L100C showed no signal (0 of 3 replicates; controls 0 of 9). With K24Q+L100K the result was no signal (0 of 3 replicates; controls 0 of 9).

With V29S+S58A+L100N the result was no signal (0 of 3 replicates; controls 0 of 9). Variant L30R+A40D+L100A gave no signal (0 of 3 replicates; controls 0 of 9). With N35F+V39K+L100R the result was no signal (0 of 3 replicates; controls 0 of 9). Variant Y31K+V39E+L100V showed no signal (0 of 3 replicates; controls 0 of 9). For S58M+L100Q, the assay gave no signal (0 of 3 replicates; controls 0 of 9). For Q96H+L100R+S103G, the assay gave no signal (0 of 3 replicates; controls 0 of 9).

Variant A57W+Q96P+L100Y showed no signal (0 of 3 replicates; controls 2 of 9).

The opening 3 entries, copied out:

changes	Kd (apparent)	seen in	control signals
L100A+S103D	5.7 nM	3/3	3/9
L30C+L100T	7.0 nM	3/3	0/9
S28W+W56M+L100F	8.2 nM	3/3	0/9

Empty control strains, which show no peptide, gave a signal in 18% of pairings with library AAYL50; the median was 15 µM and 95% of these signals were weaker than 970 nM. No background was subtracted. For each scFv, signals with the empty controls are counted beside the result.